Read-outs that look alike come from different tables or passages of the source.
Tests used:
[1] = test system: DFMO treated Chinese hamster ovary (CHO) cells; experiment: DFMO/spermidine rescue assay in CHO cells (Assay 2); type: cell-based; conditions: Cricetulus griseus
Procedure: In the reconfirmation assay compounds were run in quadruplicate. […] A PTI compound is expected to block the entry or disrupt the intracellular trafficking of spermidine and inhibit the ability of spermidine to rescue the growth or viability of DFMO treated cells.
DFMO/Spermidine assay Here cells were treated with an inhibitor of polyamine biosynthesis (DFMO) and rescued back to high viability by the presence of exogenous polyamine (spermidine). Putative PTI compounds were screened for their ability to block the entry or intracellular trafficking of exogenous spermidine (or otherwise disrupt the intracellular trafficking of spermidine) by measuring cell viability in the presence of DFMO+spermidine+PTI compound. […] This was followed by adding 10 μL of […] and 5 μM spermidine (FAC 5 mM DFMO and 1 μM spermidine) in assay medium with a Beckman BioRAPTR FRD dispenser or 10 μL of 5 mM DFMO added in assay medium (positive control). […] A PTI compound is expected to block the entry or disrupt the intracellular trafficking of spermidine and inhibit the ability of spermidine to rescue the growth or viability of DFMO treated cells Cytotoxicity

CHO cells = experiment: Cytotoxicity screen in CHO cells; conditions: Chinese hamster, CHO K1 cells
Procedure: CHO K1 cells were grown in growth medium to 70% confluency and washed in PBS and trypsinized. […] Cells were spun at 100×g for 1 minute and incubated at 37° C. in a humidified CO2 incubator for 24 hours. […] Cellular ATP content was then assayed by adding 3 uL of ATPLite with a Beckman BioRAPTR FRD dispenser and incubated for 10 minutes at room temperature. Plates were spun at 200×g for 1 minute and read on a Perkin Elmer Viewlux multimode plate reader using luminescence mode. This assay was used for testing dose-response of dry powders.
CHO K1 cells were grown in growth medium to 70% confluency and washed in PBS and trypsinized. Cells were plated in assay medium at 10000 cells/mL for 200 cells per well using a Thermo Multidrop Combi in 20 uL into a white Greiner plate. Cells were spun at 100×g for 1 minute and incubated at 37° C. in a humidified CO2 incubator for 24 hours. […] This was followed by adding by 10 μL of assay medium to all wells with a Beckman BioRAPTR FRD dispenser. […] Plates were spun at 200×g for 1 minute and read on a Perkin Elmer Envision for multimode plate reader using luminescence mode. […]
The final compound concentration was either 20 μM or 10 μg/mL (depending upon the compound source). […] Assay 2 then evaluated the ability of the compound to inhibit the uptake of a rescuing dose of Spermidine (Spd, 1 μM) into DFMO-treated CHO cells.

[2] = Table 7, read-out: SAR IC50 DFMO assay

## COc1ccc(CC(=O)Nc2ccc(N3CCN(c4cc(Cl)ccc4C)CC3)cc2C(=O)O)cc1 [SBI-0754480]
[1]; [2]
  IC50: 25 µM

## COc1ccccc1N1CCN(c2ccc(NC(=O)c3ccccc3Cl)c(C(=O)O)c2)CC1 [SBI-0800670]
[1]; [2]
  IC50: 26 µM

## COc1ccc(C(=O)Nc2ccc(N3CCN(c4ccccc4OC)CC3)cc2C(=O)O)cc1 [SBI-0800678]
[1]; Table 4B, read-out: DFMO/CHO IC50
  IC50: 26 µM
[1]; [2]
  IC50: 26 µM

## COc1ccc(C(=O)Nc2ccc(N3CCN(c4ccccc4)CC3)cc2C(=O)O)cc1 [SBI-0800679]
CHO cells
  IC50 at 48 h: 17 µM

## COc1ccc(C(=O)Nc2ccc(N3CCC(C(N)=O)CC3)cc2C(=O)O)cc1 [SBI-0800693]
CHO cells
  IC50 at 48 h: 22 µM

Source: patent US11905268B2, “Anthranilic acid derivatives and their use in the treatment of human cancers” (UNIVERSITY OF CENTRAL FLORIDA RESEARCH FOUNDATION, INC., priority 2018, dated 2024)
